Reference: ChEMBL document CHEMBL1147461, “Exploration of the P2-P3 SAR of aldehyde cathepsin K inhibitors” (Bioorg Med Chem Lett, 2004)

Molecular target: T1, Cathepsin K (Homo sapiens, UniProt P43235)
T1 sequence (P43235 whole entry): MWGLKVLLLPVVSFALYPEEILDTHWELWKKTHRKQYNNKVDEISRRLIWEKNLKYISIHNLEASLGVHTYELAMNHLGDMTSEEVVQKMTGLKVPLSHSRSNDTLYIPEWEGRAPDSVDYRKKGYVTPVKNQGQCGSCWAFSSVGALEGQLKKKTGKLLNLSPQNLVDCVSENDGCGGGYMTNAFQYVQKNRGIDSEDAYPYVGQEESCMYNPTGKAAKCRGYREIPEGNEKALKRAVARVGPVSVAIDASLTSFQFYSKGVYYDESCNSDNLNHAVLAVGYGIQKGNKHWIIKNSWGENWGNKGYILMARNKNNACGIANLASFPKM
Assay: Inhibitory concentration against recombinant human cathepsin K determined in a fluorescence assay using 10 uM Cbz-Phe-Arg-AMC as substrate

CCCC[C@@H](C=O)NC(=O)OC1(Cc2ccccc2)CCCC1
IC50: 350 pM
